Measurements taken from patent US20070179161A1, “Pyrazolopyrimidine compounds and their use in medicine” (VERNALIS (CAMBRIDGE) LIMITED., priority 2003, published 2007).
Read-outs that look alike come from different tables or passages of the source.

By UniProt entry, the sequences of proteins in these tests, tags left out.
UniProt O15530, whole entry: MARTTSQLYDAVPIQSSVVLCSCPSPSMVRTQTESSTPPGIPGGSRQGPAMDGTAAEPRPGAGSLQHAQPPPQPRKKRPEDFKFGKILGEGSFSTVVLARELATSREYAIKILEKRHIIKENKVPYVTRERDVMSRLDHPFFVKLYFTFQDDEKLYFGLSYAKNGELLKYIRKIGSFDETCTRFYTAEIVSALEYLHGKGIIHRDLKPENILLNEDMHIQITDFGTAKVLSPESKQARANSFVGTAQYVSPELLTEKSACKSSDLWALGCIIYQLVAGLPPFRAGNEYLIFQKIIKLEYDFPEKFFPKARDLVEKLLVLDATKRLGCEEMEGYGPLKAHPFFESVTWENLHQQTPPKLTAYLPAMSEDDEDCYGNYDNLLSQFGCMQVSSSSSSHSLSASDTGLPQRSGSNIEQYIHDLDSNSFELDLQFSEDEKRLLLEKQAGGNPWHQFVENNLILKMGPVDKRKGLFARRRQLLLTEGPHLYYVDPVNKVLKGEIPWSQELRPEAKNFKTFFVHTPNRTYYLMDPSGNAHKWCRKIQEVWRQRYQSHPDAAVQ
UniProt O14757, whole entry: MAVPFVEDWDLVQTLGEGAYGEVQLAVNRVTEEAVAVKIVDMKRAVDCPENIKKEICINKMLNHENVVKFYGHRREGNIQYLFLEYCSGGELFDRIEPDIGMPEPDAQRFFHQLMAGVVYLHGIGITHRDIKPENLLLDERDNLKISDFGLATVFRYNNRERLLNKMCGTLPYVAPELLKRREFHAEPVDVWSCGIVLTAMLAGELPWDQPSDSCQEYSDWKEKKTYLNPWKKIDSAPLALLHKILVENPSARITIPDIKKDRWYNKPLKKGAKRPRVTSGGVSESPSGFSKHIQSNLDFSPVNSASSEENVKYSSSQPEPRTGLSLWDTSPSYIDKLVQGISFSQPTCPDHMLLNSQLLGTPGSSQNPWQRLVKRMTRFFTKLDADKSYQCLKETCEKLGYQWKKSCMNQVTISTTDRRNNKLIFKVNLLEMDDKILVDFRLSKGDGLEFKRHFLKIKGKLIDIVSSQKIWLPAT

Tests used:
Type in all cases: biochemical
PDK1 enzyme = PDK1 enzyme (Homo sapiens, UniProt O15530); test: PDK1 kinase inhibition assay (33P phosphorylation of synthetic peptide, filter plate); conditions: read-out: PDK1 IC50, 0.01 mM ATP, 60 min at 30° C.
GST-Chk1 enzyme = GST-Chk1 enzyme (Homo sapiens, UniProt O14757); test: Chk1 kinase inhibition assay (33P phosphorylation of Chktide, filter plate); conditions: read-out: Chk1 IC50, 0.01 mM ATP, 11 nM GST-Chk1, 40 minutes at 30° C.
[1] = biological target: CDK-2 enzyme, complexed with cyclin A (Homo sapiens, UniProt P24941); test: CDK2 enzyme inhibition assay (33P phosphorylation of peptide […], filter plate); conditions: read-out: CDK2 IC50; CDK-2/cyclin A, 0.1 mM ATP, 40 min at 30° C.

CCc1cnn2c(Nc3ccc(C(N)=O)cc3)cc(N[C@H]3CC[C@@H](N)CC3)nc12
IC50 (PDK1 enzyme): 11.3 µM

COc1cc(Nc2cc(N[C@H]3CC[C@H](N)CC3)nc3c(Br)cnn23)ccc1S(=O)(=O)N(C)C
IC50 (PDK1 enzyme): 18 µM | IC50 (GST-Chk1 enzyme): 9 µM

N[C@H]1CC[C@H](Oc2cc(Nc3ccc(S(=O)(=O)c4ccccc4)cc3)n3ncc(Cl)c3n2)CC1 (relative stereo)
IC50 [1]: 0.015 µM

CC(C)c1cnn2c(Nc3ccc(S(=O)(=O)N(C)CCO)cc3)cc(OCCN(C)C)nc12 [Example 39]
IC50 (PDK1 enzyme; tested form: HCl): > 200 µM | IC50 (GST-Chk1 enzyme; tested form: HCl): 46.8 µM
